TrxR1 inh-1: blocks rat thioredoxin reductase 1 | recombinant rTrxR1, NADPH fluorescence consumption, selenite substrate | Potency, µM (top dose mostly 114 µM), inactives show top-dose activity change, negative = inhibition, most hits filed as inhibitors | hit rate 1% among 390,000 | AID 588453; further: potency means the concentration at half of the fitted maximal effect; on the % scale 0 is the no-effect control and ±100 the full control effect; nearly all actives have a fitted effect of over 65% in size
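Rat TrxR1 (90 nM in the dispensed reagent) was pre-reduced with 400 uM NADPH for 5 min at room temperature, then incubated with compound for 15 min. After 400 uM selenite was added, NADPH fluorescence (Ex 340/Em 450 nm) was followed for 8 min.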
GALK inhibitor: galactokinase (human) inhibition; hit rate 0.007% among 270,000; AID 1868; Potency, µM (series often up to 57.5 µM), for inactives: top-dose activity change, negative = inhibition, actives largely listed as inhibitors; Purified GALK, Kinase-Glo residual ATP luminescence; P51570; further: potency means the concentration at half of the fitted maximal effect; on the % scale 0 is the no-effect control and ±100 the full control effect
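GALK at 5 nM final was combined with compound, 35 uM ATP and 100 uM galactose in HEPES pH8.0 with MgCl2 and DTT. The reaction ran one hour at room temperature before luminescent ATP detection.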
PINK1 modulator: PINK1 expression modulation. PINK1 immunofluorescence, high-content cytometry, 24 h. Potency, µM (series often up to 76.6 µM), for the others: at the top dose activation (PINK1 increase), usual class: activators. hit rate 0.2% among 410,000. AID 624263; active means well fitted activation curve with a large enough effect; inconclusive means small, poorly fitted or top-dose-only effect; cell line not stated here; further: potency means the concentration at half of the fitted maximal effect; % of control where 0% means no effect; nearly all actives have a fitted effect of over 65% in size
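Compound titrations (5 concentrations, 24 h) on a stable cell line; DMSO and CCCP controls. Endpoint: fixed-cell PINK1 immunofluorescence with mitochondrial, cell and nuclear markers, scanned by microplate cytometer.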
TrxR1 substrate: rat thioredoxin reductase 1 substrate activity | purified TrxR1 substrate turnover, NADPH consumption readout | Potency, µM (titrated, usually from 114 µM), inactives show at the highest dose activity change, negative = substrate turnover | hit rate 0.01% among 390,000; further: potency means the concentration at half of the fitted maximal effect; on the % scale 0 is the no-effect control and ±100 the full control effect; nearly all actives have a fitted effect of over 50% in size
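Rat TrxR1, dispensed at 90 nM, was prereduced with 400 uM NADPH (final) for 5 min at ~22 deg C, then incubated with compound 15 min before 400 uM selenite. A first-read NADPH fluorescence drop versus no-compound background flagged substrates.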
miR-21 reporter: miR-21 reporter, rising signal | AID 2288 | HeLa miR-21 FLuc reporter, luciferase, 48 h | 340,000 tested, under 10 active | Potency, µM (doses to about 38.3 µM), for inactives: at the top dose reporter change, positive = more light; active = well fitted rising curve with a large enough effect; inconclusive = small, poorly fitted or top-dose-only effect; inactive = no such curve, though single readings can be large or run the other way;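 note: % of control where 0% means no effect; miR-21 action dims this reporter so a rising signal means less miR-21 action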
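HeLa cells endogenously expressing miR-21, stably carrying CMV-driven firefly luciferase with a downstream miR-21 binding site, 2000 cells/well. Titrations up to approximately 40 uM, 48 hours; luciferase luminescence read.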
GR counterassay: counter-screen for TrxR1 inhibitors: human glutathione reductase inhibition; shares compounds with TrxR1 inh-1; purified GR, DTNB reduction absorbance 405 nm kinetic; activity change, negative = inhibition, % at 57.1 µM; 55 tested, under 10 active
TrxR1 inh-2: validation of rat thioredoxin reductase 1 inhibitors | shares compounds with TrxR1 inh-1 | recombinant TrxR1, NADPH fluorescence consumption, selenite substrate | Potency, µM, usual class: inhibitors | hit rate 50% among 55 | AID 652023
TrxR1 insulin: TrxR1 inhibition in insulin mechanism assay. shares compounds with TrxR1 inh-1. Potency, µM. TrxR1 Trx-coupled insulin reduction, NADPH absorbance 340 nm. hit rate 20% among 55;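 active means compounds with a measured potency under 100 micromolar; inconclusive means filed, but no rule given; inactive means potency at or above that, or unmeasurable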
TrxR1 inh-3: inhibitors of rat thioredoxin reductase 1, DTNB reduction; AID 652256; hit rate 90% among 55; Potency, µM; shares compounds with TrxR1 inh-1; purified TrxR1, DTNB reduction, A412;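 active means a half-inhibiting concentration could be measured and was below 100 µM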
Numbers without * were called inactive; ? = inconclusive; . = no result given; [ ] = another dose, or the depositor's remark. In the library only some 1.1% were active in any assay of this set; here they are far more common. Unless noted, the call rests on the fitted dose curve; in most records, active means well fitted curve in the direction sought with a large enough effect; inconclusive means small, poorly fitted or top-dose-only effect, or another doubt; inactive means no such curve, though single readings can be large; an effect the other way counts as inactive or inconclusive.

SMILES | TrxR1 inh-1 | GALK inhibitor | PINK1 modulator | TrxR1 substrate | miR-21 reporter | others
COc1ccc(NC(=O)CSc2oc(-c3cccs3)nc2S(=O)(=O)c2ccccc2)c(OC)c1 | ? | . | -2% | -5% | 17%
COCCOC(=O)c1c(C)n(C)c2ccc(OC(=O)N(C)C)cc12 | 21% | 1% | 5.6µM* | 5% | 0%
CCn1cnc2c(Nc3cccc(Cl)c3)nc(N[C@@H]3CCCC[C@@H]3N)nc21 | -14%[57.1 µM] | . | . | -2%[57.1 µM] | .
O=c1[nH]c(O)c(/C=C2\C=Nc3ccc(OCc4ccccc4)cc32)c(=O)[nH]1 | -26% | . | 32µM* | -11% | -14%
COc1ccc2c(c1)CCC1C2CC[C@@]2(C)C1CC[C@@H]2NCCCCCCN1C(=O)C=CC1=O (stereo not given in full) | ? | . | . | 8%[57.1 µM] | .
Cc1ccc(N2C(=O)NC(=O)/C(=C/c3cnc(-c4ccccc4)nc3)C2=O)cc1C | 6.3µM* | . | 0% | 2% | -24%
Cc1cccc(N2C(=O)NC(=O)/C(=C\c3cnc(-c4ccccc4)nc3)C2=O)c1 | 10µM* | -2% | 0% | -2% | -21%
O=C1NC(=O)N(c2ccccc2)C(=O)/C1=C/c1ccoc1 | ? | 3% | 2% | -4%[57.1 µM] | 2%
CC(C)c1ccc(N2C(=O)NC(=O)/C(=C\c3cnc(-c4ccccc4)nc3)C2=O)cc1 | 10µM* | 2% | 1% | 8%[57.1 µM] | -8%
COc1ccc(NC(=O)CCn2cnc3onc(-c4ccc(F)cc4)c3c2=O)cc1OC | ? | . | 5% | -10% | -2%
Cc1cc(O)c2c(c1)C(=O)C13C(=C2O)C(=O)[C@H]2[C@@H](O)[C@@H]1[C@H]1[C@H](O)[C@@H]3C(=O)C3=C(O)c4c(O)cc(C)cc4C(=O)C312 (stereo not given in full) | ? | . | 28µM* | -31% | .
CCN(CC)c1ccc(CC2C(=O)N(C)C(=O)N(C)C2=O)cc1 | 32µM* | -1% | 1% | -5% | 1%
C=CCOc1ccc(CC2C(=O)N(C)C(=O)N(C)C2=O)cc1 | 3%[57.1 µM] | 2% | 1% | -3% | -11%
COc1ccc(/C=C/C=C2C(=O)NC(=S)NC2=O)cc1 | 7.1µM* | . | 0% | -6% | .
COc1ccc(C=C2C(=O)NC(=S)NC2=O)cc1OC | 7.1µM* | . | 2% | -4% | .

Continued, starting with the last two of the part before.
SMILES | TrxR1 inh-1 | GALK inhibitor | PINK1 modulator | TrxR1 substrate | miR-21 reporter | others
COc1ccc(/C=C/C=C2C(=O)NC(=S)NC2=O)cc1 | 7.1µM* | . | 0% | -6% | .
COc1ccc(C=C2C(=O)NC(=S)NC2=O)cc1OC | 7.1µM* | . | 2% | -4% | .
COc1ccccc1C=C1C(=O)NC(=S)NC1=O | ? | . | -2% | 8% | .
C[C@@]12C=CC(=O)C=C1CCC1C2CC[C@]2(C)C(=O)CCC12 (stereo not given in full) | . | . | 1% | . | .
CC(C)(C)c1cc([N+](=O)[O-])cc(C(C)(C)C)c1O | -14% | 10% | 5µM* | -17% | 28%
O=C1NC(=O)N(c2ccc(Cl)cc2)C(=O)/C1=C/c1coc2ccc(O)cc2c1=O | ? | 0% | 8% | 2% | -1%
CCc1ccc(N2C(=O)NC(=O)/C(=C/c3cccn3CCOc3ccc(C(C)CC)cc3)C2=O)cc1 (stereo not given) | -18% | -4% | 16% | -2% | -42%
CCOc1cc(/C=C2/C(=O)NC(=O)N(c3ccc(CC)cc3)C2=O)ccc1OC(=O)c1cccs1 | 18µM* | -4% | 2% | -3% | 10%
COc1cccc(N2C(=O)NC(=O)/C(=C/c3ccc4c(c3)Cc3ccccc3-4)C2=O)c1 | 14µM* | 6% | 0% | 14% | -28%
COc1ccc(/C=C2/C(=O)NC(=O)N(c3ccccc3)C2=O)cc1CN1C(=O)c2ccccc2C1=O | 25µM* | 3% | 3% | 3% | 3%
COc1cccc(N2C(=O)NC(=O)/C(=C/c3ccc([N+](=O)[O-])s3)C2=O)c1 | ? | 0% | 1% | -6%[57.1 µM] | 6%
O=C1NC(=O)N(c2ccccc2)C(=O)/C1=C/c1coc2ccc(O)cc2c1=O | 22µM* | 5% | 19% | -2% | -2%
CCc1ccc(-n2nc(C)c3c2NC(=O)CSC3c2ccc(OC)cc2OC)cc1 (stereo not given) | 1% | . | 1% | -8% | 10%
O=C1/C(=C/c2ccc(N(CCCl)CCCl)cc2)Cc2ccccc21 | 2% | . | . | -1% | .
O=C(NCCSc1c(-c2ccc(F)cc2)[nH]c2ccccc12)c1ccc(S(=O)(=O)N2CCOCC2)cc1 | 19% | . | 1% | 4% | ?
Cc1cc(C)cc(OCC(=O)Nc2ccc(-c3nc4ccccc4s3)cc2)c1 | 31% | . | 9% | 18% | -41%
O=C(Nc1ccc(F)c(Cl)c1)N(Cc1ccc2c(c1)OCO2)C1CCN(Cc2ccccc2)CC1 | 24% | . | 1% | 0% | 8%

Of the compounds above, these have a thiophene ring, fused or not:
SMILES | TrxR1 inh-1 | GALK inhibitor | PINK1 modulator | TrxR1 substrate | miR-21 reporter | others
COc1ccc(NC(=O)CSc2oc(-c3cccs3)nc2S(=O)(=O)c2ccccc2)c(OC)c1 | ? | . | -2% | -5% | 17%
CCOc1cc(/C=C2/C(=O)NC(=O)N(c3ccc(CC)cc3)C2=O)ccc1OC(=O)c1cccs1 | 18µM* | -4% | 2% | -3% | 10%
COc1cccc(N2C(=O)NC(=O)/C(=C/c3ccc([N+](=O)[O-])s3)C2=O)c1 | ? | 0% | 1% | -6%[57.1 µM] | 6%

(cont.)
SMILES | TrxR1 inh-1 | GALK inhibitor | PINK1 modulator | TrxR1 substrate | miR-21 reporter | others
COC(=O)N1CCC2(CCCN(C)C2)CC1 | . | . | -1% | . | .
COc1cc(/C=C2/C(=O)NC(=O)N(c3ccccc3)C2=O)ccc1O | 45µM* | . | -2% | -20% | 1%
O=C1NC(=S)NC(=O)C1=Cc1ccc2c(c1)CCN2CCCCl | 28µM* | 0% | 1% | -6% | 1%
CCN1C(=O)c2ccccc2Sc2ccc(NC(=O)Nc3ccc(Br)c(C)c3)cc21 | 20%[57.1 µM] | . | 16µM* | 0%[57.1 µM] | 28%
CN(C)c1ccc(/C=C/c2cc[n+](C)c3ccccc23)cc1 | ? | 1% | 25µM* | 5%[11.4 µM] | ?
CN(C)c1ccc(/C=C/C=C/c2sc3ccccc3[n+]2C)cc1 | 0% | -1% | 5µM* | 4% | ?
C[n+]1ccc(-c2ccccc2)c2ccccc21 | 12%[57.1 µM] | . | 0% | 88%[57.1 µM] | .
O=C(O)[C@@H]1C[C@H]2C[C@@H](CP(=O)(O)O)CC[C@H]2CN1 | 22% | . | . | 10% | .
Cc1ccc(OCC(=O)Nc2ccc(Cl)cc2C(=O)c2ccccc2)c(Br)c1 | 8% | . | 3% | -3% | 0%
COc1ccc(N2C(=O)NC(=O)/C(=C\c3ccc([N+](=O)[O-])s3)C2=O)cc1 | 25µM* | 3% | 0% | -3%[57.1 µM] | -1%
CCOc1ccc(N2C(=O)NC(=O)/C(=C\c3cc(OC)c(OC)cc3[N+](=O)[O-])C2=O)cc1 | 11µM* | 1% | 5% | 9%[57.1 µM] | -4%
CCOc1ccc(N2C(=O)NC(=O)/C(=C\c3ccc(N4CCOCC4)cc3C)C2=O)cc1 | ? | 4% | 3% | 3% | -4%
COc1ccc(N2C(=O)NC(=O)/C(=C/c3ccc([N+](=O)[O-])s3)C2=O)cc1 | 40µM* | 8% | 0% | -14% | 8%
CC1=C[C@@H]2c3cccc4[nH]cc(c34)C[C@H]2N(C)C1 | 2.5µM* | 0% | 0% | 27% | -3% | GR counterassay=-4;TrxR1 inh-2=?;TrxR1 insulin=49µM*;TrxR1 inh-3=2.2µM*
Cc1nc2cnc(N3CCNCC3)nc2n(C)c1=O | . | . | 0% | . | .

Assay outcomes as filed in PubChem.
